Molecular target: T1, Bone morphogenetic protein 4 (Mus musculus, UniProt P21275)
T1 sequence (P21275 whole entry): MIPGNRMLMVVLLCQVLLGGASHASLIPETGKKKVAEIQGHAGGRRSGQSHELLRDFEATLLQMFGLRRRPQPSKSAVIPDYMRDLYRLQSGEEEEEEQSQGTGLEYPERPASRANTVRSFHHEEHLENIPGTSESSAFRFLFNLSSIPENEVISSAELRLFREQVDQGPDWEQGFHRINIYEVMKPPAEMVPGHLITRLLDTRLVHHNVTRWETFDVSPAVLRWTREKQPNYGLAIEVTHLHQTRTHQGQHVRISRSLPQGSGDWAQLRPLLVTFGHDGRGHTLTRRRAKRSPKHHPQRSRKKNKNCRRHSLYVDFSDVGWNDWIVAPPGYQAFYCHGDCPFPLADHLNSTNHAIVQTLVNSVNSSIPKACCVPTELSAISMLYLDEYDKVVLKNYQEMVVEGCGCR
Test: Inhibition of BMP4 in mouse C2C12BRA cells after 14 hrs by luciferase reporter gene assay

An IC50 of 2640 nM was found for `c1ccc2c(-c3cnn4cc(-c5ccc(N6CCNCC6)cc5)cnc34)csc2c1` in this work.

An IC50 of 6730 nM was found for `COc1ccc(-c2cnc3c(-c4cncc5ccccc45)cnn3c2)cc1` in this work.

An IC50 of 246 nM was found for `Clc1cc(-c2cnn3cc(-c4ccc(N5CCNCC5)cc4)cnc23)ccn1` in this work.

— BindingDB's records for doi:10.1016/j.bmcl.2013.03.113 (Vanderbilt University Medical Center, 2013)
